For this experiment, the system named is spontaneously hypertensive rats (SHR). Description: tMCAO/R focal cerebral ischemia, infarct size by TTC staining. It is filed as in vivo, rat. As to conditions: MFD of NitroMemantine (65.8 μmol/kg loading, 3.29 μmol/kg maintenance). Here is the method: Because of their known propensity to stroke, similar to human patients with hypertension, we used spontaneous hypertensive rats (SHR, Harlan) to induce tMCAO/R with the intraluminal suture method. Male 200–300 g SHR were anesthetized with 3% isoflurane in 30% oxygen/70% nitrous oxide using an anesthetic vaporizer and flowmeter. Body temperature was maintained at 37 °C with a homeothermic temperature system. A laser Doppler monitor was used to monitor relative cerebral blood flow (rCBF) during the surgical procedure and recovery. rCBF measurements were made immediately after anesthesia, after occlusion of the MCA, just before, and immediately after withdrawal of the suture to initiate reperfusion. To initiate a stroke, a midline incision was made to expose the right common carotid, external carotid, and internal carotid arteries. The occipital artery branches of the external carotid artery were isolated and along with the terminal lingual and maxillary artery branches coagulated with an electrocautery unit. The internal carotid artery was isolated and carefully separated from the adjacent vagus nerve. […] The rodents were sacrificed 24-h post occlusion, and the size of brain infarct was evaluated histologically by 2,3,5-triphenyl-2H-tetrazolium chloride (TTC) staining.

In the case of “1-amino-3′,5′-diethyl-7-hydroxy-adamantine”, the “histological protection (infarct size) at equimolar dose” value is recorded as “no significant protection”.

The values are drawn from publication PMC4609936, “Pharmacologically targeted NMDA receptor antagonism by NitroMemantine for cerebrovascular disease” (Scientific Reports, 2015).
